Assay results: patent publication US9297810B2, “CD40L-binding agent based platelet aggregation assays” (BIOGEN IDEC MA INC., priority 2005, dated 2016)

Molecular target: T1, CD40L on the platelet surface (Homo sapiens, UniProt P29965)
T1 construct: endogenous in cells
T1 sequence (P29965 1-261): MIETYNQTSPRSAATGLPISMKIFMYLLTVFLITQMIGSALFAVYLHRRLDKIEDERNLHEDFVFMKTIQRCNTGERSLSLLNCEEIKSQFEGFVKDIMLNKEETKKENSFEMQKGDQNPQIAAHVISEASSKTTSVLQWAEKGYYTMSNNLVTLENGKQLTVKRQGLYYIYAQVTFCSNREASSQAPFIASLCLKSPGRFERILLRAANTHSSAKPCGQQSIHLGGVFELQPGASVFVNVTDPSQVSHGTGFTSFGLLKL
Assay: Binding of biotin-conjugated anti-CD40L antibody to platelets (western blotting with HRP-streptavidin)
Details: platelets with or without 10 μM ADP, 1-60 minutes
Description: Platelets were incubated with a biotin-conjugated anti-CD40L antibody to determine whether CD40L is present on the surface of platelets. PRP was incubated with or without 10 μM ADP for 1, 10, 20, 40, or 60 minutes and then incubated with biotin-conjugated anti-CD40L antibody. Unbound antibody was removed from the platelets by washing with PBS. The amount of anti-CD40L antibody bound to the platelets was determined by western blotting using HRP-conjugated streptavidin. The specific binding of biotin-conjugated anti-CD40L antibody to the platelets was verified by preincubating the antibody with recombinant sCD40L.
Expression of CD40L was readily detected in lysates prepared from human platelets (data not shown). To determine whether CD40L is expressed on resting and/or activated platelets, platelets were incubated with biotin-conjugated anti-CD40L antibody and the presence of surface CD40L was determined by quantifying the bound biotinylated anti-CD40L antibody. Surface expression of CD40L was evaluated after 1, 10, 20, 40, and 60 minutes of incubation with or without 10 μM ADP. Surface expression of CD40L was detectable on ADP-activated platelets as early as one minute after activation and increased over time (FIG. 2). […] This phenomenon is likely attributable to the basal level of platelet activation under our experimental conditions.

“BG9588: Research-grade anti-CD40L antibody prepared at Biogen; table column BG9588 corresponds to it” was tested. Which “binding to CD40L on the platelet surface” value did it give?
Its value is “recognizes the CD40L molecules present on the platelet surface”.
